## Ab-14 heavy chain CDR variants: yeast mating affinities

Target peptide (SARS-CoV-2 spike, HR2 region): PDVDLGDISGINAS

Each scFv is VH, the linker GGGGSGGGGSGGGGS, VL, as in the parent Ab-14, and differs from it in the CDRs of the heavy chain only.
VH: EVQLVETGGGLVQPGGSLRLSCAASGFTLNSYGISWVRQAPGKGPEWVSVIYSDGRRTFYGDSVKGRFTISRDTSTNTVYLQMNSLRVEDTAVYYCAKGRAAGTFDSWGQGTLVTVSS
VL: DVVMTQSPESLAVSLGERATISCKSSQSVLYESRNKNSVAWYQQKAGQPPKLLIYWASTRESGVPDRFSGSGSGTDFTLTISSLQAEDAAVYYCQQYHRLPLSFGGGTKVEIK

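Phage display of a naive human antibody library on the peptide gave the parent. The library (AAYL49) carries one to three amino acid substitutions per variant, with no insertions or deletions. The scFvs were displayed on barcoded MATa yeast, the peptide on MATalpha yeast. Mating (16 h, 30 °C) was followed by selection of diploids and sequencing of their barcodes. A regression on co-assayed BCL2-family reference pairs converts the normalised counts of each replicate to an apparent Kd. Mating was done three times.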

Variants are written as CDR1, CDR2 and CDR3 of the heavy chain (limits as in the source). Parent: GFTLNSYGIS, VIYSDGRRTFYGDSVK, GRAAGTFDS.
Every variant below is changed at G33 of the VH (sequential numbering).
Scale: log10 of Kd in nM, estimated from mating counts; low values are strong binders.
An entry "nd" has no value in the source: the pair was not observed among the diploids in that replicate. This suggests poor binding but is not conclusive.
For reference, the parent read 0.65 as the reference entry and 4.11 (one replicate of three) as a member of this library.
Background: pairings of library AAYL49 with three empty control strains gave a value in 15% of cases (median 4.06, 5th percentile 2.83). Values in that range, when seen in few replicates, are hard to tell from nonspecific mating.

For GFTLNSYFIS | VIYSDGRLTFYGDSVQ | GRAAGTFDS, the assay gave nd, nd, 4.10.
For GQTLNSYDIS | YIYSDGRRTFYGDSVK | GRAAGTFDS, the assay gave 5.91, nd, nd.
For GFTLNSYRIS | VIYSDGRRTFYGDSVF | GRAAGTADS, the assay gave nd, nd, nd.
For GFTLNGYPIS | VIYSDGRRTFYGDSVK | GRAAGTFDS, the assay gave nd, nd, nd.
For GFTLNSYSIS | VIYSDGRRTFYSDFVK | GRAAGTFDS, the assay gave 5.59, nd, nd.
For GFTLNSYLIS | VIYSDGRRTFYGPSVK | GRAAGTFDW, the assay gave nd, nd, nd.
For GFTLNSMIIS | VIYSDGRRTFYGDSVP | GRAAGTFDS, the assay gave 3.79, 3.65, nd.
For GFTLNSYAIS | VIYFDGRRTFNGDSVK | GRAAGTFDS, the assay gave nd, 5.18, nd.
For GFTLNSYHIS | VIYSDRRRTFYGDSVK | GRAAGTFVS, the assay gave 5.11, nd, nd.
For GFTLNSYSIS | VIYSDGNRTFYGDQVK | GRAAGTFDS, the assay gave nd, 4.31, nd.
For GFTLNSYYIS | VIYSDGRRTFYRDSVK | GRAAGTFPS, the assay gave 4.32, nd, 4.68.
For GTTLNSYQIF | VIYSDGRRTFYGDSVK | GRAAGTFDS, the assay gave nd, nd, nd.
For GFTLNSYKIQ | VIYSDGRRTFYGDSYK | GRAAGTFDS, the assay gave 4.11, nd, nd.
For GFTLNSYYIS | VIYSDGRRTFYGDSVK | GEAMGTFDS, the assay gave nd, nd, nd.
For GFTLNSYAIS | VIYSDGRRTFYGDSVK | GRAAGTFDS, the assay gave nd, nd, nd.
For GFTLNSYWIS | VIYSDGRRTFYGDSVK | GRAAGTFDS, the assay gave 3.47, 3.61, 4.42.
For GFTLNSYHIS | VWYSDGRRTFYGDSVK | GRAAGTFDD, the assay gave 6.01, 4.66, nd.
For GFTLNSDVIS | VIYSDGRRTFYKDSVK | GRAAGTFDS, the assay gave 6.91, 5.95, 4.42.
For GFTLNSYYIS | VIYSDGRRTFYGDSVK | GRAAGTQDA, the assay gave nd, nd, nd.
For GFTLNSYIIS | VIYSDGRRTFYGDSVK | GRAAGGFDW, the assay gave nd, 3.45, nd.
For GFTLNSYHIS | VIRSDRRRTFYGDSVK | GRAAGTFDS, the assay gave nd, nd, nd.
For GFTLNSYCIS | VIYSDGRRTFYYDSVA | GRAAGTFDS, the assay gave nd, nd, nd.
For GFTLNSYTIS | VIFSDGRRTFYGDSVY | GRAAGTFDS, the assay gave 3.68, 3.60, nd.
For GFTLNSYKIS | VIYSDGRRTFYQDSVK | GRAAGTFDS, the assay gave 4.43, 3.59, nd.
For GFTLNSMSIS | VITSDGRRTFYGDSVK | GRAAGTFDS, the assay gave 2.77, 2.65, 2.77.
For GFTLNSYTIL | VIYSDGRRTFYGDSVK | GRAASTFDS, the assay gave nd, nd, 2.41.
For GFTLNSYDIS | VIYSDGFRTFYGDSVK | MRAAGTFDS, the assay gave nd, nd, nd.
For DFTLNSYNIS | VIYSDGRRTFYGDSVK | GRAAGTFDS, the assay gave nd, 3.29, nd.
For GFTLCSYTIS | VIYSDGRRTFGGDSVK | GRAAGTFDS, the assay gave nd, nd, nd.
For GFTLNEYSIS | VIYSDGRRTFYGDSVK | GRAAGTTDS, the assay gave 3.95, 4.86, nd.
For GFTLNSYDIS | VIYSDGRRTFYGFSVK | GRAAGTFDS, the assay gave nd, nd, nd.
For GFTLNSELIS | VIYSDGRRTFYGDSVK | GRAAGSFDS, the assay gave nd, nd, nd.
For GFTLNSYQIS | WIYSDGRRTFYGDSVK | GRAAGTFDS, the assay gave nd, 4.62, nd.
For GFTLNSYPIS | VIYSDGRRTFYRDSVQ | GRAAGTFDS, the assay gave nd, nd, nd.
For GFTLNSYMIS | VIYSDGRRTFYGDSVK | IRAAGVFDS, the assay gave nd, nd, nd.
For GFTLNSYDIS | VVYSDGRRTFYGDSVK | GRVAGTFDS, the assay gave 2.75, nd, nd.
For GRTLNSYVIS | VIYSDGRRAFYGDSVK | GRAAGTFDS, the assay gave nd, nd, nd.
For GFTLNSYHIS | VIYSDGRRTFYGLSVK | GRAAGFFDS, the assay gave 4.53, 4.01, nd.
For GFTLNDYMIS | VIYWDGRRTFYGDSVK | GRAAGTFDS, the assay gave 6.03, 5.58, nd.
For GFTLNSYSIS | VIYSDGRRTFYGDSVK | GRAAGTFDD, the assay gave nd, nd, nd.
For GFTLNSYTIS | VIYWDGRRTFYGDSWK | GRAAGTFDS, the assay gave nd, nd, nd.
For KFTTNSYHIS | VIYSDGRRTFYGDSVK | GRAAGTFDS, the assay gave nd, 4.67, nd.
For GFTLNSYTIS | VFYSDGRRTFYGDSVK | GRAAFTFDS, the assay gave nd, 2.91, nd.
For GWTLNSYSIS | VIYSDYRRTFYGDSVK | GRAAGTFDS, the assay gave 4.85, nd, nd.
For GFILNSYFIS | VIYSDGRRTFYGDSVK | GRAAGTFSS, the assay gave nd, nd, nd.
For GFTLNSYPIS | NIYSDGRRTFYGDSVK | GRPAGTFDS, the assay gave 6.08, 3.62, nd.
For GFTLRSYQIS | VIYSDGRRPFYGDSVK | GRAAGTFDS, the assay gave 4.43, 3.31, 6.27.
For GFTLNVYYIS | VIYNDGRRTFYGDSVK | GRAAGTFDS, the assay gave nd, nd, nd.
For GFTLNSDYIS | VIYSDGRRTFYGDSVK | GRYAGTFDS, the assay gave nd, nd, 3.77.
For GFTINSYWIS | VIYSDGRSTFYGDSVK | GRAAGTFDS, the assay gave 4.70, nd, nd.

Excerpt, the final 3 entries:

CDR-H1,CDR-H2,CDR-H3,"replicates, log10 nM"
GFTLNVYYIS,VIYNDGRRTFYGDSVK,GRAAGTFDS,"nd, nd, nd"
GFTLNSDYIS,VIYSDGRRTFYGDSVK,GRYAGTFDS,"nd, nd, 3.77"
GFTINSYWIS,VIYSDGRSTFYGDSVK,GRAAGTFDS,"4.70, nd, nd"

The measurements come from Engelhart et al. 2022 (doi:10.1038/s41597-022-01779-4) through the FLAb antibody collection.